{
  "source": "patent US20260199514A1",
  "about": "“PRODRUG STRATEGY THAT ENHANCES EFFICACY AND LOWERS SYSTEMIC TOXICITY OF MERTANSINE” (priority 2022, published 2026)",
  "test": "Stability and release analysis of DM1-Prodrug in nanoparticles (RP-HPLC)",
  "assay_type": "physicochemical",
  "settings": "on the shelf and in tissue culture conditions prior to cellular uptake",
  "procedure": "FIG. 11. NP[Prodrug] stability in phosphate buffer (PB), acetate buffer (AB) and PB containing enzymes (Enzyme cocktail) at 37° C. Briefly, nanoparticles were prepared and incubated in buffers for 0, 24, and 48 h at 37° C., while the samples were constantly shaking. Nanoparticles were analyzed after incubation period to determine whether prodrug molecules were stable under different pH and reaction condition, using a Zorbax C3 semiprep column and a 2-propanol/acetonitrile/water gradient. Normalized AUC=(AUC of Prodrug Peak at a given hour/AUC of Prodrug Peak at 0 h).\nAfter determining the loading efficiency of DM1-Prodrug, the release of the active DM1 from the liposomes was evaluated using an analytical column in HPLC. […] The sustained retention is advantageous in nanoparticle delivery because it prevents leakage of the drug prior to reaching the target site and ensures its delivery in larger quantities to be released at the tumor site. Upon cellular uptake of nanoparticles, active drug release is facilitated by enzymatic degradation of liposomes and linking moiety.\nStability and Release Analysis of DM1. Samples were prepared at 25 mM of lipid concentration incorporating DM1-Prodrug. Nanoparticles were prepared using dry film hydration and extrusion as mentioned earlier. […]",
  "data": [
    {"substance": "DM1-DSPE [Prodrug-4]", "values": [
      {"measurement": "stability of prodrug (in words)", "result": "stable on the shelf and in tissue culture conditions"}
    ]}
  ]
}
